Data on one molecule can be found in ChEMBL document CHEMBL3758107, “Lead optimization of the VU0486321 series of mGlu(1) PAMs. Part 2: SAR of alternative 3-methyl heterocycles and progress towards an in vivo tool” (Bioorg Med Chem Lett, 2016).

A short description of the data set: Ratio of drug level in brain to plasma in rat brain at 0.25 mg/kg, iv after 0.25 hrs by PBL cassette study. Format: ADME, organism-based.

With `Cc1ccoc1C(=O)Nc1ccc(N2C(=O)c3cccc(C)c3C2=O)cc1F`, the Ratio turned out to be 0.95.
